Experimental data reported in US10189859B2, “Derivatives of 6-(2,3-dichlorophenyl)-1,2,4-triazin-5-amine” (Nektar Therapeutics, priority 2013, dated 2019).
pIC50: −log10 of the molar value. Like-named read-outs stand apart in the source and are kept apart here.

Chains of the proteins cited; added tags and fusions are not shown.
UniProt Q15858, whole entry: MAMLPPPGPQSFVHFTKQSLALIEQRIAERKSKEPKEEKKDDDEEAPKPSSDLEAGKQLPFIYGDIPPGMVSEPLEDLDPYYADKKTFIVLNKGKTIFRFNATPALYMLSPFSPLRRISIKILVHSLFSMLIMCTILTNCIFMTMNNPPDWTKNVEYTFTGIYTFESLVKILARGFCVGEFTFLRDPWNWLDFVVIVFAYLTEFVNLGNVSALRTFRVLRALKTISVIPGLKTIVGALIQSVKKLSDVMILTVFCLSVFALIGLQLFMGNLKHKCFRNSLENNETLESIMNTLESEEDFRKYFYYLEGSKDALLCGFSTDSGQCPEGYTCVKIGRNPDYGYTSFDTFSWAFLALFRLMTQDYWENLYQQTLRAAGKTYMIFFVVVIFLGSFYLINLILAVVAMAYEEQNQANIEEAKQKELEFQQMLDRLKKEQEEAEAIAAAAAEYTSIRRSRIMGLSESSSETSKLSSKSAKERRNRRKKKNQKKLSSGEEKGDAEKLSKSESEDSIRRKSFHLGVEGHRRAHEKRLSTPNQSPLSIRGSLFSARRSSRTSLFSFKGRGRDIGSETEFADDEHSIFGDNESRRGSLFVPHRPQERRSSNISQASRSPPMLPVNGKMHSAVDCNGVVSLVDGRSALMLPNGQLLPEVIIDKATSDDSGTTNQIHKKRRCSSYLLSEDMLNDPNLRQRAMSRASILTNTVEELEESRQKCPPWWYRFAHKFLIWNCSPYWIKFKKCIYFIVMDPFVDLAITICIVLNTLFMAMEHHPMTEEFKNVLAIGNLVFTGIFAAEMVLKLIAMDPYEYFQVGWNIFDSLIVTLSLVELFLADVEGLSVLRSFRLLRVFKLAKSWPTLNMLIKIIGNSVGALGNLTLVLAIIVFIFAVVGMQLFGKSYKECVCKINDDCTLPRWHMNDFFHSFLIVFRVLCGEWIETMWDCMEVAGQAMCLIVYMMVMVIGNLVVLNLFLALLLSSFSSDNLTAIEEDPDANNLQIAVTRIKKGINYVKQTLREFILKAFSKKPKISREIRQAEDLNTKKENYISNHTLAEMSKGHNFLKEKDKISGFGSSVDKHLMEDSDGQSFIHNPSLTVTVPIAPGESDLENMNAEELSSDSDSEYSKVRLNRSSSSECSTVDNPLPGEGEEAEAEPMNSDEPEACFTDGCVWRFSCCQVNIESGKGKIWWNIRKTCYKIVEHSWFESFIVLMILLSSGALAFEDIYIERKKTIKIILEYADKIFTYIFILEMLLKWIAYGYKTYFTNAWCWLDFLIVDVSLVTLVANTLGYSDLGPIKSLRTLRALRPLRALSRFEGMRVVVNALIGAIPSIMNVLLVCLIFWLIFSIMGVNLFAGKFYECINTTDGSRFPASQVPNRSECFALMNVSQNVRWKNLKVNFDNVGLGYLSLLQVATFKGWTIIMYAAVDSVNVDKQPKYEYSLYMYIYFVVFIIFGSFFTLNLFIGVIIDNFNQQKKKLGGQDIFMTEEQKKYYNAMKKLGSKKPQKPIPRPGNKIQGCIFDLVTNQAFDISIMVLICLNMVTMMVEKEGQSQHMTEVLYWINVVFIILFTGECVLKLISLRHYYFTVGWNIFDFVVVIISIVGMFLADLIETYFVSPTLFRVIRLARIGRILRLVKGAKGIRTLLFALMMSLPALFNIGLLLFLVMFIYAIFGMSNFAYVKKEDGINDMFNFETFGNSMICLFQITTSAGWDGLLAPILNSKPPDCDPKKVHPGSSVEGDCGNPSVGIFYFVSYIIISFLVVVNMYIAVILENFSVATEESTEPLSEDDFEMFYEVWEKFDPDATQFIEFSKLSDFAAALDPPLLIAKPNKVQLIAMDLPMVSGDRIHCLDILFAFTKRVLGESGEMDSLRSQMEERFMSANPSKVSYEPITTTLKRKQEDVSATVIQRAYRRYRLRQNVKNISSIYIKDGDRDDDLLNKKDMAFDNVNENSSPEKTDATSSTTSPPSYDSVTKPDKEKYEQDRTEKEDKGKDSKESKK

Biological target: Nav1.7 sodium channels (human SCN9A gene) (Homo sapiens (Human), UniProt Q15858)
Assay: Automated patch clamp (IonWorks Barracuda) of Nav1.7 stably expressed in CHO cells
Type: cell-based
Protocol: The potencies of the compounds provided herein to block specific Na+ channels was measured using automated patch clamp electrophysiologically of Nav1.7 sodium channels (human SCN9A gene) stably expressed in CHO cells using the IonWorks™ Barracuda system. Currents were measured from the whole cell patch configuration. From a holding potential of −90 mV, membranes were subjected to a 200 ms pre-pulse to −120 mV, then pulsed to 0 mV to measure blockade of the tonic (resting) state. Inactivated state block was elicited by repolarization to −100 mV (20 ms pulse duration), followed by depolarization to 0 mV (20 ms pulse duration). Peak inward Na+ currents were measured in the presence of vehicle or various concentrations of the test compound to determine the percent block of current. Concentration-response relationships were used to calculate IC50 values for the illustrative compounds.

COC[C@@H](O)CO[C@H]1CCN(c2nnc(-c3cccc(Cl)c3Cl)c(N)n2)C1 [Compound 71, (R)-1-(((S)-1-(5-Amino-6-(2,3-dichlorophenyl)-1,2,4-triazin-3-yl)pyrrolidin-3-yl)oxy)-3-methoxypropan-2-ol]
pIC50 (inactivated state block, read-out: Inactivated state IC50): 3.73 | pIC50 (tonic (resting) state block, read-out: Tonic state IC50): < 3.70
